Patent US20060040951A1, “Use of 5-ht2 receptor antagonists for the treatment of sleep disorders” (Merck Patent GmbH, priority 2002, published 2006)

Test system: rats
Experiment: Brain-wave (EEG) recording of rats over 6 hours during the dark phase
Assay type: in vivo, rat
Conditions: 6 h dark phase
Procedure: The comparative substance triazolam, by contrast, extends non-REM sleep by 2 min/h at a dose of 0.1 mg/kg and by 6.5 min/h at a dose of 0.4 mg/kg, which corresponds to the maximum effect in triazolam.
Under the same conditions, zolpidem extends non-REM sleep by 5 min/h at 5 mg/kg and by 7 min/h at 10 mg/kg.
However, there is an important difference between the compound according to the invention and the reference sleeping drugs with respect to their action on REM sleep. The standard sleeping drugs shorten this stage of sleep: triazolam (0.1-1.6 mg/kg) by 0.3 to 2.1 min/h, zolpidem (5-10 mg/kg) and zopiclon (2.5-5 mg/kg) by 0.3 to 1.6 min/h (the values relate to recording on rats for 6 hours during the dark phase). […] (3-Cyano-1H-indol-7-yl)-[4-(4-fluorophenethyl)piperazin-1-yl]-methanone, by contrast, extends REM sleep by an average of 0.8 min/h and with a maximum of 2 min/h.

For `CN1CCN(C(=O)OC2c3nccnc3C(=O)N2c2ccc(Cl)cn2)CC1` (centres unmarked) [Zoplicon, zopiclon], the “extension of non-REM sleep (compared with zolpidem)” value (2.5-5 mg/kg) was “comparable effect” and the “what the change in REM sleep results from” value was “reduction in the number of these phases”.
With `Cc1ccc(-c2nc3ccc(C)cn3c2CC(=O)N(C)C)cc1` [zolpidem] the “what the change in REM sleep results from” value was “reduction in the number of these phases”, the “extension of non-REM sleep” value (dose 5 mg/kg) was 5 min/h and the “extension of non-REM sleep” value (dose 10 mg/kg) was 7 min/h.
